Data published in PMC4559800.

Biological target: rat monocarboxylate transporter MCT1 (rat) (UniProt P53987)

human carbonic anhydrase IX, wild type (from UniProt Q16790 38-459) (enzyme)
rate of lactate-induced rise in intracellular H+ (Δ[H+]i/Δt; MCT1 transport activity) in Xenopus oocytes coexpressing MCT1 and CAIX-WT, against MCT1 alone: 180%
